From article PMC11678162 (Pharmaceutics, 2024)

Assays:
[1] = tested on: normal human cells (hemolytic activity); details: at high concentrations of >100 µM; cited from earlier work
Text: Natural gomesin is a small, positively charged β-hairpin peptide consisting of 18 amino acid residues, including a pyroglutamic acid at the N-terminus, the C-terminal amide group, and four cysteine residues forming two disulfide bridges.

[2] = tested on: clinical isolate of C. albicans; details: murine model of candidiasis, compared to the control group; cited from earlier work
Text: Displaying multivarious biological activities, including antibacterial activity, anticancer activity, and antiparasitic activity, gomesin is of the greatest interest as an antifungal drug candidate. […] In addition, an in vivo study of gomesin on a murine model of candidiasi ...

C. albicans ATCC 18804 = assay: Flow cytometry, propidium iodide uptake; type: cell-based, Candida albicans; details: 1× MIC (0.39 μM), 2 h at 30 °C, 0.5× Sabouraud broth, 2 × 10^4 CFU/mL
Procedure: Flow cytometry analysis was performed using a Novocyte 2060R flow cytometer (ACEA Biosciences Inc., San Diego, CA, USA), as described previously. C. albicans ATCC 18804 at a final concentration of 2 × 10^4 CFU/mL in 0.5× Sabouraud broth was used for analysis. […] Treated cells and untreated controls were precipitated by centrifugation at 1600× g for 10 min, resuspended in 0.3 mL of PBS, and stained for 20 min at room temperature in the dark with propidium iodide (Biotium, Fremont, CA, USA) at a concentration of 4 μg/mL. The cells after thermal treatment at 99 °C for 10 min were used as a control of dead cells. The obtained data were processed using NovoExpress Software v. 1.2.4 (ACEA Biosciences Inc., San Diego, CA, USA).

For `CC(C)C[C@@H]1NC(=O)[C@H](CCCNC(=N)N)NC(=O)[C@H](CCCNC(=N)N)NC(=O)[C@@H](NC(=O)[C@@H]2CCC(=O)N2)CSSC[C@@H](C(=O)N[C@@H](CCCNC(=N)N)C(=O)NCC(=O)N[C@@H](CCCNC(=N)N)C(=O)O)NC(=O)[C@H](Cc2ccc(O)cc2)NC(=O)[C@H]([C@@H](C)O)NC(=O)[C@H](C(C)C)NC(=O)[C@@H]2CSSC[C@H](NC1=O)C(=O)N[C@@H](Cc1ccc(O)cc1)C(=O)N[C@@H](CCCCN)C(=O)N[C@@H](CCC(N)=O)C(=O)N[C@@H](CCCNC(=N)N)C(=O)N2` [Gomesin], the hemolytic activity [1] is given as “about 40%”, the “fungal burden (in words)” value [2] is given as “effectively reduced fungal burden” and the “PI-stained cells (upper gate, FSC vs. PI plot)” value (C. albicans ATCC 18804) is given as 86.6%.
